We go through one substance from US12606795B2, “Akkermansia muciniphila and product and application thereof” (Thankcome Biological Science and Technology (SuZhou) Co., …, priority 2023, dated 2026).

Like-named read-outs stand apart in the source and are kept apart here.

For data set [1], the system named is Escherichia coli WP2 uvrA. The protocol: (§1) Bacterial strains used were Salmonella typhimurium TA97a (National Center for Type Culture Collection NTCC, 506391), S. typhimurium TA98 (NTCC, 506392), S. typhimurium TA100 (NTCC, 506395), S. typhimurium TA1535 (NTCC, 506396), and Escherichia coli WP2 uvrA (CHI Scientific, Co., Ltd., product number: 6-1705). To prepare a drug delivery formulation, distilled water was used as a carrier to prepare a suspension (100 mg/mL) for a test item. […] Therefore, bacteria in samples for the test item were removed by a mechanical means. In the process of mixing the formulation, any soluble components for the test item was dissolved in the carrier, and then, residual bacteria were removed by centrifugation (4° C.; 8000 rpm; 10 min). After centrifugation, liquid supernatant was removed and sterile filtration was performed with a 0.22 μm filter.
(§2) In the confirmatory mutation research, detection was performed at 15.81, 50, 158.1, 500, 1581, and 5000 μg/plate. The maximum concentration was recommended by current regulations and guidelines. […] The survival rate of test bacterial cells was checked through plate experiments in each test. If there is a dosage-related increase in the number of revertants, it is considered that the test item has mutagenicity, and/or a reproducible biology-related positive reaction targeting at least one dosage group occurs in at least one strain with or without metabolic activation.

For another data set, the system named is S. typhimurium TA100. The conditions noted are these: TA100 +S9. The protocol:
as §1, §2

A further data set relates to S. typhimurium TA1535. The protocol: as §1, §2
A further data set deals with S. typhimurium TA98. The protocol:
as §1, §2

In data set [2] the test system is Salmonella typhimurium TA97a, TA98, TA100, TA1535 and Escherichia coli WP2 uvrA. The following applies: bacteria-free filtered supernatant of the test item, up to 5000 μg/plate, with or without S9. The procedure:
as §1, §2

In data set [3] the test system is Salmonella typhimurium TA97a. The protocol: as §1, §2

As to Akkermansia muciniphila [AKK PROBIO], the “Number of revertant mutants per plate (mean ± standard deviation)” value in data set [1] (Escherichia coli WP2A uvr +S9) came out at 130.80; in data set [1] (Escherichia coli WP2A uvr −S9) it was 113.60; in the data set on S. typhimurium TA100, 52.00; in the data set with S. typhimurium TA1535 (TA1535 +S9), 12.40; in the data set with S. typhimurium TA1535 (TA1535 −S9), 10.00; in the data set with S. typhimurium TA98 (TA98 +S9), 31.60. Also, the “Number of revertant mutants per plate (mean ± standard deviation)” value is listed as 36.80 with S. typhimurium TA98 (TA98 −S9), 101.80 in data set [3] (TA97a +S9) and 98.20 in data set [3] (TA97a −S9). The mutagenicity result in data set [2] is recorded as “no mutagenicity”.
